Assay in all cases: cell-based or functional assay
In assay [1] the target is PfRH5 of Plasmodium falciparum strain 7G8 (on live parasites) (Plasmodium falciparum).
The target of assay [2] is PfRH5 of Plasmodium falciparum strain Dd2 (on live parasites) (Plasmodium falciparum).
Assay [3] concerns the target PfRH5 of Plasmodium falciparum strain D10 (on live parasites) (Plasmodium falciparum).

B1: H1H29187P2 (antibody, V domains shown)
VH: QVQLVESGGGVVQPGRFLRLSCAASGFTFSNSGMHWVRQAPGKGLEWVAGIWHDGSYKYYVDSVKGRFTISRDNSKNTLFLQMNSLRAEDTAVYYCARDDYYASGTSVDVWGQGTTVTVSS
VL: not shown
As to B1, the “Max growth inhibition (%) 7G8” value in assay [1] was found to be 71.8%.

B2: H1H29149P2 (antibody, V domains shown)
VH: QVQLQESGPGLVKPSQTLSLTCTVSGGSISSGGYYWNWIRQHPGKGLEWIGYIYYSGSTYYNPSLKSRVTISVDTSKNQFSLKLGSVTAADTAVYYCARAPPYNWFDYWGQGTLVTVSS
VL: not shown
For the molecule B2, in assay [2], the “Max growth inhibition (%) Dd2” value stood at 50.3%.

B3: H1H29163P2 (antibody, V domains shown)
VH: QVQLVQSGAEVKKPGASVKVSCKTSGYTFTAYYIHWVRQAPGQGLEWMGWINPNNGDTNYALRFQGRVTMTRDMSINTAYMELRGLRSDDTAVYYCARDDLAAAGIGWFDSWGQGTLVTVSS
VL: not shown
B3: the “Max growth inhibition (%) D10” value in assay [3] was determined as 71.8%.

For the origin of these results see patent publication US20240400663A1 (Regeneron, published 2024).
